One compound from the Kinase Knowledgebase extract (Sharma et al. 2016) can be followed below.

Protein sequences, listed by entry. Tags and fused reporters are not part of them.
UniProt P42336, whole entry, looked up: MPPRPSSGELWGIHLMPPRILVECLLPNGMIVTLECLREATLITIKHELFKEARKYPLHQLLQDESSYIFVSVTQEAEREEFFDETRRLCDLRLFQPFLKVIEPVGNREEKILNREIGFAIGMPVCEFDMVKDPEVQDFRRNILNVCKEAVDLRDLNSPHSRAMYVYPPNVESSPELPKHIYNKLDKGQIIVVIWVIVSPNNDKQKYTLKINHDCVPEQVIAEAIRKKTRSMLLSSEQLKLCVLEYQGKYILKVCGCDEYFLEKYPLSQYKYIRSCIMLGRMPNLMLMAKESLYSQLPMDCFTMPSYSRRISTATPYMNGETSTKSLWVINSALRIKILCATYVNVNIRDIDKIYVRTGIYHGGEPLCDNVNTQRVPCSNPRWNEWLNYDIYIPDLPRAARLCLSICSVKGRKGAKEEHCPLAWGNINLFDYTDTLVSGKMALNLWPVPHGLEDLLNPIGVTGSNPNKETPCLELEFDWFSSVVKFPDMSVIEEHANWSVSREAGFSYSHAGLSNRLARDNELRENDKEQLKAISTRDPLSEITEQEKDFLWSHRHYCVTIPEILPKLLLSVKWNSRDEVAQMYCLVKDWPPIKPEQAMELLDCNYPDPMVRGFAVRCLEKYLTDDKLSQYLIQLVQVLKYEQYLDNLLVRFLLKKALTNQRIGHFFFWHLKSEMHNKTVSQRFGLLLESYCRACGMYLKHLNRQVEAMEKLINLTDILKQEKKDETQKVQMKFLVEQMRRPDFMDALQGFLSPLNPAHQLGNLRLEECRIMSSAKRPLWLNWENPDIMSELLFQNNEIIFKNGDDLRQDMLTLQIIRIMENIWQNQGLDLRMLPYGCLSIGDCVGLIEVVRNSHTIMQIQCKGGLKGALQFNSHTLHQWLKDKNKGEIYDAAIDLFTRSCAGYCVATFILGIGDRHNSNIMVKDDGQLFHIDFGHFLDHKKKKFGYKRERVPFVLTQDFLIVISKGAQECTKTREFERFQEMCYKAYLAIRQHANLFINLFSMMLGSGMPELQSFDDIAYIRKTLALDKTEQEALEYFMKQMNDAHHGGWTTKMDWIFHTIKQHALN

The target in the assay is PIK3CA (human) (UniProt P42336). The experiment in a line: Assessment of PIK3CA Kinase Activity.

Turning to `Cc1nc(-c2cn3c(n2)-c2ccc(-c4cnn(C(C)(C)C(N)=O)c4)cc2OCC3)n(C(C)C)n1`, the IC50 (usually the concentration needed to halve the response being measured) was less than 1000 nM.
